{"source": "patent US20250345350A1", "about": "“TREATING PAIN ASSOCIATED WITH CENTRAL SENSITIZATION” (Medicon Pharmaceuticals, Inc., priority 2022, published 2025)", "key": {"[1]": {"system": "paclitaxel-induced central sensitization in C57/BL/6J mice", "settings": "day 14; PS hydrogel 5% or 0.7% sulindac 3 times a day; 5% lidocaine cream once 30 min before; pregabalin 10 mg/kg orally once 1 h before"}, "[2]": {"system": "STZ-induced central sensitization in Sprague-Dawley rats", "assay": "PWT (von Frey), streptozotocin rat model of central sensitization (Example 4)", "type": "in vivo", "settings": "0.7% sulindac hydrogel 3 times a day for 1 week; 5% lidocaine cream once 30 min before; pregabalin 10 mg/kg orally once 1 h before", "method": "Sprague-Dawley rats were fasted for 4-6 hours before being injected intraperitoneally with 45 mg/kg STZ. This was performed for all experimental groups, except the naive group. In order to prevent hypoglycaemic death, rats received 10% sucrose water as the sole water source for the first 48 hours after injection. In order to ensure only those rats considered diabetic (i.e., having non-fasting plasma glucose levels of >250 mg/dL) were included in the study, blood glucose was measured at 72 hours after the STZ injection.\nFour weeks after STZ injection, the rats were randomised into treatment groups. This delay between STZ injection and treatment allows the establishment of chronic pain (allodynia) associated with central sensitization. […] 5% lidocaine cream (positive control) was applied only once to both hind paws of the rats 30 minutes before measurement of PWT.\nThe rats were split into 8 study groups, with those in the experimental groups (1-4) having an average body weight of about 225 g, and those in the control groups (5-8) having an average body weight of about 335 g, as follows: • 1. Group 1: naive rats (n=5) • 2. Group 2: STZ only (n=6) • 3. Group 3: STZ plus vehicle (n=6) • 4. […] Group 5: STZ plus oral vehicle (n=8) • 6. Group 6: STZ plus 0.7% sulindac hydrogel (n=7) • 7. Group 7: STZ plus 5% lidocaine cream (n=8) • 8."}}, "data": [{"smiles": "CC(C)C[C@H](CN)CC(=O)O", "note": "[pregabalin, reference compound]", "values": [{"measurement": "PWT, g Mean ± SEM", "setting": "[1]", "result": "1.28 ± 0.10", "unit": "g"}, {"measurement": "PWT, gm Mean ± SEM", "setting": "[2]", "result": "27.3 ± 1.7", "unit": "gm"}]}]}
